The values that follow come from US7375222B2, “2,4,6-Triamino-1,3,5-triazine derivative” (Astellas Pharma Inc., priority 2002, dated 2008).

Sequences of proteins named here, by UniProt entry; tags and fusion partners are left off.
UniProt Q9ULD8, whole entry: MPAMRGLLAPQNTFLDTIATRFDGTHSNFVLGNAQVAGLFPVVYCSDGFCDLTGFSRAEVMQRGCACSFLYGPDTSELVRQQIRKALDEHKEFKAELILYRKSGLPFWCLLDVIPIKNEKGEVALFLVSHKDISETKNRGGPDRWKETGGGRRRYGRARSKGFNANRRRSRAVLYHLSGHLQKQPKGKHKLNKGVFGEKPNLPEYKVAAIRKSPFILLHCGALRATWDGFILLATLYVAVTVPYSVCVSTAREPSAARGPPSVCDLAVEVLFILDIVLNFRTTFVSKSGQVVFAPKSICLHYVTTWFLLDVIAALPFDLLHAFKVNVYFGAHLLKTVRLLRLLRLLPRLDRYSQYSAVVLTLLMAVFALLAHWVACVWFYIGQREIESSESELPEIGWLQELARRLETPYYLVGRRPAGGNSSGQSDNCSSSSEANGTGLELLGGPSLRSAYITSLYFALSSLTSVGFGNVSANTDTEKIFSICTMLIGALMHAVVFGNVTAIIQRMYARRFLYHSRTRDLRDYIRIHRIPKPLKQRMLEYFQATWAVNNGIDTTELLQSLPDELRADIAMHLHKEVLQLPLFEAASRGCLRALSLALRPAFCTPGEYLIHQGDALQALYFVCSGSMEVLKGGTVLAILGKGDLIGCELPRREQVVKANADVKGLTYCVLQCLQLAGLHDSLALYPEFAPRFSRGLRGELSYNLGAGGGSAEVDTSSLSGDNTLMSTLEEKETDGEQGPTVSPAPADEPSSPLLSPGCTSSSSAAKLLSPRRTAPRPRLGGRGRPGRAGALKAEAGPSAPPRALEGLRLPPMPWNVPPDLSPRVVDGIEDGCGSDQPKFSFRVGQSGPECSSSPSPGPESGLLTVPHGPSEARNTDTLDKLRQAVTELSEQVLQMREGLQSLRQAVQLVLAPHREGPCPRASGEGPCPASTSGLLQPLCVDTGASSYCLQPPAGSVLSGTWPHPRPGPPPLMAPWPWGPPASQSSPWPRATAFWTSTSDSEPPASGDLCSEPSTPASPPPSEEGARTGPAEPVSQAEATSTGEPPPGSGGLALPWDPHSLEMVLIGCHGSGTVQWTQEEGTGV

The test has as its target BEC 1 potassium channel (Homo sapiens, UniProt Q9ULD8). The test is described as follows: BEC 1 inhibitory activity using released amount of 86Rb ions from BEC 1-expressing cells. To be noted: read-out: BEC1 IC50; 86Rb ion release, BEC 1-stably expressing CHO (dhfr-deficient) cell, 100 mM KCl stimulation; tested form: HCl. The procedure:
In general, the potassium channel can pass Rb^+ ion similar to K^+ ion, so that the channel activity can be measured using release of a radioisotope ^86Rb^+ as a marker. By incubating cells expressing the novel potassium channel protein together with ^86RbCl (e.g., 18 hr, 37° C.), ^86Rb^+ can be incorporated into the cells. The cells are washed with a low K^+ concentration physiological saline (e.g., 4.5 mM K^+) and then suspended in the same solution. When a high K^+ concentration solution (e.g., 100 mM in final concentration) is added to the cell suspension, membrane potential of the cell is depolarized and the potassium channel therefore is activated. As a result, the intracellular ^86Rb^+ is released into the extracellular part, thus radioactivity of the extracellular solution can be used as a marker of the channel activity. It is possible to screen a compound and a peptide capable of modifying activity of the BEC 1 potassium channel protein, by comparing the radioactivity released into the extracellular part when the high K^+ concentration solution is added in the presence and absence of each drug to be tested. […]
The channel activity of BEC 1 was measured in accordance with the method described in WO 99/37677, using amount of a radioisotope ^86Rb ion released from a BEC 1-expressing cell as the index. […]

With `Fc1cc(CNc2nc(Nc3ccccc3)nc(Nc3ccccc3)n2)ccn1`, the IC50 was determined as 79 nM.
